Only some compounds are listed: those with a hit (about 13% of all), similar ones and a draw of the others.
LMNA splice mod = LMNA splicing modulation; AID 1487; Potency, µM (doses to about 46.1 µM), inactives show top-dose ratio change, negative = inhibition, most hits filed as inhibitors; HeLa LMNA splicing GFP/RFP minigene ratio, 48 h; 200,000 compounds, 0.01% hits; active = well fitted inhibition curve with a large enough effect in the signal ratio, with a control signal flat, not every such curve was filed as active; inconclusive = small, poorly fitted or top-dose-only effect, or effect the other way, or a change in a side signal; the % refers to the signal ratio; also: potency is read from the fitted curve at half-maximal effect; % is scaled to controls: 0 for no effect and ±100 for the full control effect
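S3 HeLa stable clones carrying a lamin A-EGFP splicing minigene plus DsRed2 were seeded at 600 cells/well in Opti-MEM with 2% FBS, pin-dosed and incubated 48 h at 37°C. Acumen cytometry (488 nm) gave the GFP/RFP total-intensity ratio.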
KDM4E inh = blocks human JMJD2E demethylase activity | 230,000 compounds, 1.6% hits | AID 2147 | JMJD2E catalytic domain, FDH-coupled NADH fluorescence (FDH is formaldehyde dehydrogenase) | Potency, µM (titrated, usually from 57.1 µM), for the others: at the highest dose activity change, negative = inhibition, hits mostly inhibitors; active = well fitted inhibition curve with a large enough effect, not every such curve was filed as active; inconclusive = small, poorly fitted or top-dose-only effect, or another doubt; inactive = no such curve, though single readings can be large or run the other way;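 also: potency is read from the fitted curve at half-maximal effect; 0% = wells with enzyme and -100% = buffer wells without enzyme; nearly all actives have a fitted effect of over 50% in size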
miR-21 reporter = miR-21 reporter, rising signal; HeLa miR-21 FLuc reporter, luciferase, 48 h; Potency, µM (highest dose often 38.3 µM), for the others: top-dose reporter change, positive = more light; 340,000 tested, under 10 active; AID 2288; active = well fitted rising curve with a large enough effect; inconclusive = small, poorly fitted or top-dose-only effect; inactive = no such curve, though single readings can be large or run the other way;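 further: % of control where 0% means no effect; miR-21 action dims this reporter so a rising signal means less miR-21 action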
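Luminescence from a firefly luciferase reporter carrying a miR-21 binding site downstream, stably expressed under a CMV promoter in HeLa cells that make miR-21 endogenously, reports miRNA modulation after 48 h compound exposure up to approximately 40uM final.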
ALDH1A1 inh = inhibitors of human aldehyde dehydrogenase 1A1; Potency, µM (titrated, usually from 75.3 µM), for inactives: at the highest dose activity, negative = inhibition, most hits filed as inhibitors; AID 1030; 220,000 compounds, 7.3% hits; Purified ALDH1A1, NADH fluorescence, propionaldehyde substrate; P00352; active = well fitted inhibition curve with a large enough effect, not every such curve was filed as active; inconclusive = small, poorly fitted or top-dose-only effect, or another doubt; inactive = no such curve, though single readings can be large or run the other way;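 also: potency is read from the fitted curve at half-maximal effect; plate controls were no enzyme wells and a reference inhibitor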
Sfp inh = inhibitors of Bacillus subtilis Sfp phosphopantetheinyl transferase. Biochemical Sfp PPTase activity, qHTS. 310,000 compounds, 3.5% hits. Q9F4F7. Potency, µM, for the others: max response, negative = inhibition, usual class: inhibitors; active = well fitted inhibition curve with a large enough effect; inconclusive = small, poorly fitted or top-dose-only effect, or another doubt; inactive = no such curve, though single readings can be large or run the other way;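 note: the enzyme is Sfp with the accession as filed and its product quenches rhodamine fluorescence; potency is the fitted concentration of half-maximal effect; 0% = enzyme reaction without inhibitor and -100% = no enzyme wells; top concentration of the series not given in the record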
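Fluorescence-quenching assay with 15 nM Sfp, 5 uM rhodamine-CoA and 12.5 uM BHQ-2-labelled ybbR peptide in pH 7.6 Hepes/MgCl2 buffer. Enzyme was pre-incubated with compound for 15 min at room temperature. Rate was taken from the 30-min fluorescence change (525/598 nm).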
G9a inh = G9a (human) methyltransferase inhibition; 350,000 compounds, 8.8% hits; Potency, µM (top dose mostly 102 µM), inactives show top-dose activity, negative = inhibition, most hits filed as inhibitors; G9a H3K9 monomethylation, AlphaScreen, 2 h; Q96KQ7; also: potency is read from the fitted curve at half-maximal effect; % is scaled to controls: 0 for no effect and ±100 for the full control effect; nearly all actives have a fitted effect of over 75% in size
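Readings reflect AlphaScreen signal from monomethyl-H3K9 antibody detection. HMT at 20 nM; substrate b-H3K9 500 nM; cofactor SAM 20 uM; 2 h RT reaction; compounds tested as titrations in qHTS with 15 min preincubation.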
The depositor's hits bear a star; ? = inconclusive; / = no result given; [ ] = remark or other dose. Unless noted, calls follow the shape of the dose curve; as a rule, active = well fitted curve in the direction sought with a large enough effect; inconclusive = small, poorly fitted or top-dose-only effect, or another doubt; inactive = no such curve, though single readings can be large; an effect the other way counts as inactive or inconclusive.

Structure	miR-21 reporter	ALDH1A1 inh	KDM4E inh	Sfp inh	LMNA splice mod	G9a inh
CCC(=O)N(Cc1cc(=O)[nH]c2ccccc12)c1cccc(C)c1	-17.9%	39.8µM*	-27.1%	?	7.4%	10µM*
CCCC(=O)N(Cc1cc(=O)[nH]c2ccccc12)c1ccc(C)cc1C	-0.6%	/	/	-7.4%	/	?
CCOc1ccccc1NC(=O)Cn1c(=O)n(Cc2ccc(OC)cc2)c(=O)c2oc3ccccc3c21	-1.7%	/	/	/	/	-2.1%[59 µM]
IC(I)I	/	12.6µM*	/	44.7µM*	-27.3%	14.1µM*
C[C@@H](O)C(N)C(=O)O (stereo partly drawn)	/	/	/	11.1%	/	/
NC1=NC(S)C2N=CN=C2N1 (stereo not drawn)	/	?	/	56.2µM*	?	25.1µM*
COc1cc(C(=O)Nc2cc(C)ccc2OCc2cc(=O)n3c(C)csc3n2)cc(OC)c1OC	-7.8%	/	/	/	?	-1.7%[59 µM]
c1ccc2c(c1)Nc1cc3ccccc3cc1S2	-38.1%	-3.6%	-6.4%	5.8%	-8.1%[46 µM]	39.8µM*
COc1ccc2c(c1)Sc1ccccc1N2	-20.7%	-1.9%	-3.4%	-3.7%	?	3.55µM*
Cc1noc(-c2ccc(NC(C)c3ccccc3)c([N+](=O)[O-])c2)n1 (stereo not drawn)	2.8%	/	/	/	/	-34.5%[59 µM]
Cc1ccc(N=Nc2ccc3ccccc3c2O)cc1	-50.6%	/	/	-4.4%	/	2µM*
Oc1[nH]c2ccccc2c1N=Nc1ccccc1	-49.1%	/	-5.1%	-12.7%	?	4.2%[12.7 µM]
COc1cccc(N=Nc2ccc3ccccc3c2O)c1	-58.7%	/	/	-0.1%	/	/
Oc1c(N=Nc2ccc(F)cc2)ccc2ccccc12	-59.0%	/	/	19.9%	/	2.51µM*
Oc1[nH]c2ccccc2c1N=Nc1ccc(F)cc1	-67.0%	4.2%	1.8%	-1.1%	-5.7%	?
Oc1ccc2ccccc2c1N=Nc1ccc(F)cc1	-1.4%	11.0%	4.6%	9.9%	/	2µM*

A draw from above in order of SMILES length, descending.
Structure	miR-21 reporter	ALDH1A1 inh	KDM4E inh	Sfp inh	LMNA splice mod	G9a inh
Cc1noc(-c2ccc(NC(C)c3ccccc3)c([N+](=O)[O-])c2)n1 (stereo not drawn)	2.8%	/	/	/	/	-34.5%[59 µM]
Oc1ccc2ccccc2c1N=Nc1ccc(F)cc1	-1.4%	11.0%	4.6%	9.9%	/	2µM*
Oc1[nH]c2ccccc2c1N=Nc1ccccc1	-49.1%	/	-5.1%	-12.7%	?	4.2%[12.7 µM]

Next section:
Structure	miR-21 reporter	ALDH1A1 inh	KDM4E inh	Sfp inh	LMNA splice mod	G9a inh
COCCC(=O)N1CCC(Oc2ccc(C(=O)N(C)Cc3cc(C)no3)cc2)CC1	-5.5%	/	/	9.5%	/	/
CCOC(=O)c1[nH]c(C)c(CCC(=O)NCc2ccc(OC)cc2)c1C	-2.2%	/	/	/	-9.5%[46 µM]	4.9%[59 µM]
Cc1c(C(=O)OCC(=O)Nc2ccc(C(N)=O)cc2)cccc1[N+](=O)[O-]	0.6%	?	2.5%	16.0%	17.5%[46 µM]	10.1%
CCC(=O)Nc1nnc(-c2ccc(Cl)s2)o1	-3.9%	-0.8%	?	4.1%	9.1%[9.22 µM]	-9.8%
CC(=O)Nc1nnc(-c2ccc(Cl)s2)o1	-14.2%	?	?	-17.6%	-13.9%	14.1µM*
CCC(Sc1nnc(C)n2c1cc1occc12)C(=O)Nc1ccccc1F (stereo not drawn)	?	/	/	/	/	-47.0%[59 µM]
O=C(CN1CCSCC1)N/N=C/c1ccccc1F	-2.9%	?	-29.4%	-30.0%	2.5%	0.9%[12.7 µM]
O=C(CN1CCCCCCC1)N/N=C/c1ccccc1F	-8.5%	?	-8.8%	-6.6%	1.3%	12.6µM*
COc1ccc(/C=N/NC(=O)CN2CCCCCCC2)c(C)c1C	-3.2%	/	-22.4%	-1.6%	/	8.91µM*
N#Cc1c(Sc2ncc(C(F)(F)F)cc2Cl)nsc1C/C=N\OCc1ccccc1Br	0.3%	10µM*	-1.7%	-13.0%	16.3%	20µM*
CCOC(=O)/C(=C\Nc1ccccc1C(F)(F)F)Sc1ncc(C(F)(F)F)cc1Cl	5.7%	-15.2%	2.5%	3.7%	8.2%	16.8%[12.7 µM]
O=c1ccc2cc3c(-c4ccccc4)coc3cc2o1	-24.3%	/	/	-2.6%	/	-11.7%
CCN1CCc2nc(N)oc2CC1	/	4.4%	-10.1%	1.8%	?	23.8µM*
CCCN1CCc2nc(N3CCN(CC)CC3)ncc2C1	-3.8%	/	/	/	-10.8%[46 µM]	?
Cc1ccc(Cl)cc1NC(=O)c1cc2ccccc2cc1O	-4.2%	6.5%	22.4µM*	-13.2%	?	/
Cc1cccc(C(=O)NC(C(=O)Nc2cccc(S(=O)(=O)N3CCCC3)c2)C(C)C)c1 (stereo not drawn)	/	/	/	/	/	-10.6%[12.7 µM]
Cc1cccc([C@@H]2CN(C)CCc3c2cc(O)c(O)c3Cl)c1	/	-8.0%	14.1µM*	79.4µM*	/	/

Fetched one by one from above, 2 records:
Structure	miR-21 reporter	ALDH1A1 inh	KDM4E inh	Sfp inh	LMNA splice mod	G9a inh
Cc1cccc(C(=O)NC(C(=O)Nc2cccc(S(=O)(=O)N3CCCC3)c2)C(C)C)c1 (stereo not drawn)	/	/	/	/	/	-10.6%[12.7 µM]
Cc1cccc([C@@H]2CN(C)CCc3c2cc(O)c(O)c3Cl)c1	/	-8.0%	14.1µM*	79.4µM*	/	/

From PubChem BioAssay
